The source of these data is patent publication US9958439B2, “Carbohydrate detection” (RICHTER LIFE SCIENCE DEVELOPMENT AB, priority 2012, dated 2018).

A short description of the test: Excitation spectrum of h-FTAA with pure insoluble microcrystalline cellulose suspensions. As to conditions: microcrystalline cellulose 6.25-0.0488 mg/ml, 3 μM h-FTAA, excitation ~480 nm, emission 545 nm.

`O=C(O)Cc1cc(-c2ccc(-c3ccc(C(=O)O)s3)s2)sc1-c1ccc(-c2sc(-c3ccc(-c4ccc(C(=O)O)s4)s3)cc2CC(=O)O)s1` [h-FTAA, hepta Formic Thiophene Acetic Acid]: the “signal intensity versus cellulose concentration” value is listed as “increased proportionally with cellulose concentration”.
